Source: patent US6916823B2, “Method of treatment of dopamine-related dysfunction” (Purdue Research Foundation, priority 2001, dated 2005)

System: unilateral 6-OHDA rats
Assay: rat unilateral 6-OHDA rotation model of Parkinson's disease
Details: in vivo
Description: Summary. In the rat unilateral 6-hydroxydopamine (6-OHDA) rotation model of Parkinson's disease, 6-OHDA is infused unilaterally into the medial forebrain bundle, the substantia nigra, or the striatum. […] When challenged with direct-acting dopamine receptor agonists, unilateral 6-OHDA rats turn contralaterally (away from the side of the lesion) because of the increased sensitivity of the postsynaptic dopamine receptors on the lesioned side. The experiments described below examine tolerance induced by the full D1 agonist, dinapsoline, using the 6-OHDA model.
Subjects. Adult male Sprague-Dawley Rats (Hilltop Laboratories, Chatsworth, Calif.), weighing between 280 and 320 grams, were used as subjects. Animals were housed individually with food and water available ad libitum, except as noted below. The light:dark schedule was 12 h:12 h, and testing was performed during the light cycle. […]
Acute Dinapsoline Administration. Beginning 1 week after the screening dose with apomorphine, subjects (n=12) were tested once per week with dinapsoline (0.02, 0.2, or 2 mg/kg) or vehicle (s.c.) using a counterbalanced design, and rotation behavior was monitored for 10 h. […] Rats were fasted for 16 h before dosing with oral gavage, and rotation behavior was monitored for 10 h.

`CCCN1CCC[C@@H]2Cc3n[nH]cc3C[C@H]21` [quinpirole, reference compound] was tested, and the rotation was “robust rotation” and the “rotation on day 4” value was “equal rotation in both groups”.
